Measurements taken from patent US9226923B2, “Spirocyclic molecules as protein kinase inhibitors” (Nanjing Allgen Pharma Co. Ltd., priority 2011, dated 2016).

Chains of the proteins cited; added tags and fusions are not shown. Residues count along the entry.
UniProt P08581, 25-1390: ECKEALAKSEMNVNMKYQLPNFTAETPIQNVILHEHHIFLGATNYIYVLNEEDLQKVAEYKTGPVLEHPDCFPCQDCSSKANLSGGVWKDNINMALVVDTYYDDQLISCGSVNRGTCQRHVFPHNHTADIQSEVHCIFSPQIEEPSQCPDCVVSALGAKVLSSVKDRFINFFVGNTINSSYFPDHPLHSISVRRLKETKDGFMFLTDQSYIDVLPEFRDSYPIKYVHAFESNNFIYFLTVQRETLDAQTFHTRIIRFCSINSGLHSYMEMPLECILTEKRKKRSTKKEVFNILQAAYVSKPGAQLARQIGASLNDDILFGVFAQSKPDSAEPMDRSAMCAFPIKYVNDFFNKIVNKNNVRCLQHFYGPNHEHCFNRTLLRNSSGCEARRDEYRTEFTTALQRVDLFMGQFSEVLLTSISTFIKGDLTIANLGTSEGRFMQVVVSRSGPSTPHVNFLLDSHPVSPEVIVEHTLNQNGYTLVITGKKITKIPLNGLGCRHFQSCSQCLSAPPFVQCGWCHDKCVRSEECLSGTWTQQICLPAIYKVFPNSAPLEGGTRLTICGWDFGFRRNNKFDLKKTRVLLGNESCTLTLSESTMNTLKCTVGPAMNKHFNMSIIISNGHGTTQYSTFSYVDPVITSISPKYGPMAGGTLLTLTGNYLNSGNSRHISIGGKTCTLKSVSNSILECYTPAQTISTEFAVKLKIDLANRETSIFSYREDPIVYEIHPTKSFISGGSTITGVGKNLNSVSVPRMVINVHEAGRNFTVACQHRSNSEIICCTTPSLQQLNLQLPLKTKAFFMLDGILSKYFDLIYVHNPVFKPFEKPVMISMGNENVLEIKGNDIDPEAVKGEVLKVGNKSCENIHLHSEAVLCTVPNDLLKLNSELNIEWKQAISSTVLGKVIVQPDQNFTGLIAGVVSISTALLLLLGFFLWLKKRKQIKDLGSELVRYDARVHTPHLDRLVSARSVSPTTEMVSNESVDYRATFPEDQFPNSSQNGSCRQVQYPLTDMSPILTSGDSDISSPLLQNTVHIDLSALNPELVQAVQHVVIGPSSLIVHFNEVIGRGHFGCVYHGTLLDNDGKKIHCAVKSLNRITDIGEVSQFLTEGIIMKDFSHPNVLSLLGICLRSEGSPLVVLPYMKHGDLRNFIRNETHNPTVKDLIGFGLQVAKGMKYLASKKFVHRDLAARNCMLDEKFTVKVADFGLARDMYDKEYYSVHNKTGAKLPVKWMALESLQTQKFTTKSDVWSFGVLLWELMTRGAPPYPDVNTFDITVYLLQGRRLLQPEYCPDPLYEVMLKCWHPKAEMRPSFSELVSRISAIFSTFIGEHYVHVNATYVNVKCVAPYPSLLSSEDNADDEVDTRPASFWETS

Target: Human cMet (Homo sapiens (Human), UniProt P08581)
Experiment: cMet enzyme inhibition assay (Reaction Biology Corporation)
Assay type: biochemical
Conditions: poly[Glu:Tyr] (4:1) 0.2 mg/ml, ATP 10 μM; read-out: Inhibitory Activities IC50, cMet

`C[C@@H](Oc1cc(-c2cnn(C3CC4(CNC4)C3)c2)cnc1N)c1c(Cl)ccc(F)c1Cl` [Example 2, (R)-5-(1-(2-azaspiro[3.3]heptan-6-yl)-1H-pyrazol-4-yl)-3-(1-(2,6-dichloro-3-fluorophenyl)ethoxy)pyridin-2-amine] was tested, and the IC50 was 6.32 nM.
